Laboratory results reported in the supplement of paper PMC10498489.
Shown are results outside the selection of hits, which stands elsewhere.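 The calls were made as follows: active = median modified Z-score above 1.96; inactive = 1.96 or below.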

system: HepG2 Srxn1-GFP reporter cells (+30 nM CDDO-Me); assay: Srxn1-GFP intensity median modified Z-score relative to plate median; higher = stronger NRF2 / oxidative stress reporter activation, active = hit call of the paper; conditions: 10 µM; exposure time: 24h
Procedure, shortened: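 The modified Z-score of GFP intensity was computed per plate, and the median over replicates is reported. HepG2 Srxn1-GFP BAC reporter cells in three replicate plates were treated for 24 h with compound at 10 μM plus an NRF2 activator at 30 nM (≤0.1% DMSO). Per-cell cytoplasmic GFP came from confocal images, excluding those with under 100 cells, and scaling used 1.4826 × median absolute deviation.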

| SMILES | Srxn1-GFP intensity median modified Z-score |
| --- | --- |
| COc1c2ccccc2nc2occc12 [euspeclibcmpd1730] | inactive: -0.0478 |
